From patent US20240409609A1 come the findings set out here.

By UniProt entry, the sequences of proteins in these tests, tags left out. Where a name states a change or a piece, a line headed by the entry shows the natural chain unless it says otherwise. Chains listed by the source or under a name are the forms on record and can include a tag or linker. Residues count along the entry.
UniProt P00533, 25-1210 limits assumed: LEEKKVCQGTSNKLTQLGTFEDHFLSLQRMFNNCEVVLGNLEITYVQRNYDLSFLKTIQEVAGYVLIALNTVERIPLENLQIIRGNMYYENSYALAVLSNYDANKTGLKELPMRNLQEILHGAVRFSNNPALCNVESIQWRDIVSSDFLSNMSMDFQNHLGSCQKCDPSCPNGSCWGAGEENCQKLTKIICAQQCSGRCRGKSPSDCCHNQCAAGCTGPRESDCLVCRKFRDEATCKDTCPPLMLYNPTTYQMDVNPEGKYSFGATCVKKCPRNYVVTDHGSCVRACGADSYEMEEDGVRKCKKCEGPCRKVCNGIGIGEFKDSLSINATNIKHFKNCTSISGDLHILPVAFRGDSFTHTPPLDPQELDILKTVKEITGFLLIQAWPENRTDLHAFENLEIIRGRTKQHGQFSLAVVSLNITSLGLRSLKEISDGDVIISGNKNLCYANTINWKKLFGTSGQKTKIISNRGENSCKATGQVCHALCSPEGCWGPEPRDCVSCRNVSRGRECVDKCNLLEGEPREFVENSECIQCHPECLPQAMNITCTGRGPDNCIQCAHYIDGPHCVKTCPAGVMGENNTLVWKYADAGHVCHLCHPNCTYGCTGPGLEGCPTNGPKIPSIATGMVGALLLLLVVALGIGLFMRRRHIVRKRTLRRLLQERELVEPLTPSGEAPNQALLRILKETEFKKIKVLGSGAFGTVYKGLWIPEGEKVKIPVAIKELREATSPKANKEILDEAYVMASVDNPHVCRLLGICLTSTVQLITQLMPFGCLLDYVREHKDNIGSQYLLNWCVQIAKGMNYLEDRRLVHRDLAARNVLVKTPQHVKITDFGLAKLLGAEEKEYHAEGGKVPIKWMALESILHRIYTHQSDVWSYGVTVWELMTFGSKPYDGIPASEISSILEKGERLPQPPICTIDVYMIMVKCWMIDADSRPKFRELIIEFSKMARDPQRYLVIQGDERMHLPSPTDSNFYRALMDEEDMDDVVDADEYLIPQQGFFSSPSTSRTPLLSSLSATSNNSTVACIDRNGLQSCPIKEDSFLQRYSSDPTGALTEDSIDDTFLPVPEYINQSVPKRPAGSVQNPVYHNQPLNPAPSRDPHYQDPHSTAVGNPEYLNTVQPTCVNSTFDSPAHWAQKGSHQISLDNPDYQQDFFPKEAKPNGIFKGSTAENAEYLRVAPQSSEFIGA
UniProt P00533, 668-1210 limits assumed: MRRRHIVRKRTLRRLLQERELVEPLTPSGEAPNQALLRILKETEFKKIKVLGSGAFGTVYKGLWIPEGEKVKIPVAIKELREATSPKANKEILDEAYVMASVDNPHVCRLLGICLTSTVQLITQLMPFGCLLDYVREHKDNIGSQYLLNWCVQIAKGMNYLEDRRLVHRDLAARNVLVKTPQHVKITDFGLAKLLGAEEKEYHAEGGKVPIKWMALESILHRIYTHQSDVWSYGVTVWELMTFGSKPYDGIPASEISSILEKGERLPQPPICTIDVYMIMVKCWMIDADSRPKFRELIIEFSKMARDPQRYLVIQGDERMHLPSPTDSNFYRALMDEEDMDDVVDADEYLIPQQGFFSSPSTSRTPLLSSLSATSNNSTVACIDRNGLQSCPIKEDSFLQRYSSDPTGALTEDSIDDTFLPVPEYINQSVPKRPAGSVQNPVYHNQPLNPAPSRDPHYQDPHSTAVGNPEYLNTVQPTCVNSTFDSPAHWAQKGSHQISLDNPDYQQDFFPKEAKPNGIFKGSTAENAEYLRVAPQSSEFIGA
UniProt P00533, 25-1210 T790M/C797S/L858R limits assumed: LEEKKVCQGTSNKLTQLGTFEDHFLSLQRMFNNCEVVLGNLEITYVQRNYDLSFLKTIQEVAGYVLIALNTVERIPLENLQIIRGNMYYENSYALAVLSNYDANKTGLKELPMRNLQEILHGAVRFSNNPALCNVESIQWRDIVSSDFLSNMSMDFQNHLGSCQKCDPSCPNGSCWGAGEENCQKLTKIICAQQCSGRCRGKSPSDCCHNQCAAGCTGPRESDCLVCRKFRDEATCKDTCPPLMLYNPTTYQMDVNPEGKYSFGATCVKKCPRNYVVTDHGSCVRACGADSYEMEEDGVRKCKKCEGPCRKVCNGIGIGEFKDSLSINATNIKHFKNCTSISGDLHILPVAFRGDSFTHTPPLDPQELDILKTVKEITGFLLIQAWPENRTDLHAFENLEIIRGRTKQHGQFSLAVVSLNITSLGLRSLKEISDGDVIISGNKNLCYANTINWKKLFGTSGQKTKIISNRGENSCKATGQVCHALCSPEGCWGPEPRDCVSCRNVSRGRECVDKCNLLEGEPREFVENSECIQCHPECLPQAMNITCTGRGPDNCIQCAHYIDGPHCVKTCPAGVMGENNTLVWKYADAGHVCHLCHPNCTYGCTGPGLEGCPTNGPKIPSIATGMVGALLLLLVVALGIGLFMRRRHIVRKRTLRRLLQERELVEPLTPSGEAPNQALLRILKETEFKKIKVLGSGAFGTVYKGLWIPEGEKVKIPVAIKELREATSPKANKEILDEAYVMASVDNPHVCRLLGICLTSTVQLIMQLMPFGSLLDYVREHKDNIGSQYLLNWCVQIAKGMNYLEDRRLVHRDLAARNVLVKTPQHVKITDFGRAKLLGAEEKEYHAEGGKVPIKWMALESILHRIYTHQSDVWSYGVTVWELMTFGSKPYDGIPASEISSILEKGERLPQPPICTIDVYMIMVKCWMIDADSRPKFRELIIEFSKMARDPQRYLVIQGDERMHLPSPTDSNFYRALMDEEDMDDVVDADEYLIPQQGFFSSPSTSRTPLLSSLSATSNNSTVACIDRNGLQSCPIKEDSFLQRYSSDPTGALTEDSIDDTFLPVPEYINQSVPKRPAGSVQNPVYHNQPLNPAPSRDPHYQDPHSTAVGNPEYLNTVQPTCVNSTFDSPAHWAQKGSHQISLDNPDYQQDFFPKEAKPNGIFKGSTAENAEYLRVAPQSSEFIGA
UniProt P00533, with tags, fused parts or gaps limits assumed, stated change not applied: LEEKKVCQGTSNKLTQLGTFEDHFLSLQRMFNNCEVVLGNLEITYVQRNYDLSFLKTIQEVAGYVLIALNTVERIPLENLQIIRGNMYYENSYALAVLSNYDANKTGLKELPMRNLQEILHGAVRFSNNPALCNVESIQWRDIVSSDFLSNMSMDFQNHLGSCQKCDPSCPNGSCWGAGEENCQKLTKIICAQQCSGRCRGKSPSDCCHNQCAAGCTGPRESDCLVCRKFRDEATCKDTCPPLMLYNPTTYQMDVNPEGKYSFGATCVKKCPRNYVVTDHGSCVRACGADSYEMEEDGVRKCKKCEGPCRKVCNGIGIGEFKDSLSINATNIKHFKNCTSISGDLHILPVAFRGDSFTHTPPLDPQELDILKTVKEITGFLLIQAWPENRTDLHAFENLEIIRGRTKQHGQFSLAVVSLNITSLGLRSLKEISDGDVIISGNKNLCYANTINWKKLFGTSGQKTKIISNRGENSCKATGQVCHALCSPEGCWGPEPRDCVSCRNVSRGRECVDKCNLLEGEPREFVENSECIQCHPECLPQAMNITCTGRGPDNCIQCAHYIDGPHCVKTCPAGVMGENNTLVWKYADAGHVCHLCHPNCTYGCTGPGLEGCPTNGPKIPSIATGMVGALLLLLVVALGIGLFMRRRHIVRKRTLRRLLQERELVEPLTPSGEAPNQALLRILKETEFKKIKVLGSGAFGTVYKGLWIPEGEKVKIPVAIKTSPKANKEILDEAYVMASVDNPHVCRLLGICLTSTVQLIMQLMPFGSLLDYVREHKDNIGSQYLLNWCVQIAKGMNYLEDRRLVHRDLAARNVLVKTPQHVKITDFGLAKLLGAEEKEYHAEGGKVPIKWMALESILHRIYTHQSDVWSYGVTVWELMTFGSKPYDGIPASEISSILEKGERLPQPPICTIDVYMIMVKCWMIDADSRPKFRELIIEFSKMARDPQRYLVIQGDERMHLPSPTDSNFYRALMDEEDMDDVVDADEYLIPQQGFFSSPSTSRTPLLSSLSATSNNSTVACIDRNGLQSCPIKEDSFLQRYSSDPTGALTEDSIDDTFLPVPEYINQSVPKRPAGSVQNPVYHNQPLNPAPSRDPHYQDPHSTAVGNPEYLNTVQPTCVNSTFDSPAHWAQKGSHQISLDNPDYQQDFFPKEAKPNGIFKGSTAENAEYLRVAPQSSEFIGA

One experiment has as its target EGFR WT (Homo sapiens (Human), UniProt P00533). The experiment is described as follows: EGFR biochemical assay (AssayQuant chelation-enhanced fluorescence). The settings on record: read-out: AssayQuant EGFR WT IC50; 30 min preincubation, reaction time 360 min.
The target of experiment [1] is EGFR T790M C797S L858R in Ba/F3 cells (Homo sapiens (Human), UniProt P00533, C797S/L858R/T790M). The experiment is described as follows: Ba/F3 pEGFR assay (AlphaLISA p-EGFR Tyr1068). The settings on record: read-out: pEGFR Ba/F3 L858R/T790M/C797S IC50; 2 hrs treatment. In kind it is cell-based. Background: Alpha assays give light when donor and acceptor beads are brought close together.

The next experiment concerns the target EGFR WT in Ba/F3 cells (Homo sapiens (Human), UniProt P00533). The experiment is described as follows: Ba/F3 pEGFR assay (AlphaLISA p-EGFR Tyr1068). In kind it is cell-based. The settings on record: read-out: pEGFR Ba/F3 WT IC50; 2 hrs treatment, media supplemented with EGF.
In experiment [2] the target is EGFR del746-750 T790M C797S in Ba/F3 cells (Homo sapiens (Human), UniProt P00533, C797S/DEL746-750/T790M). As to the kind of experiment: Ba/F3 pEGFR assay (AlphaLISA p-EGFR Tyr1068). The format is cell-based. Conditions: read-out: pEGFR Ba/F3 del19/T790M/C797S IC50; 2 hrs treatment.

In the case of `C=CC(=O)Nc1cc(Oc2cccc(O)c2C=O)cc(C(=O)N=c2[nH]c3ccc(CN4CCN(C)CC4)cc3n2CC(C)(C)O)c1`, the IC50 on EGFR WT came out at 104 nM; in experiment [1], 771 nM; at EGFR WT in Ba/F3 cells it was 4610 nM; in experiment [2], 1790 nM.
